Tested on: micropatterned human co-cultures (primary human hepatocytes with 3T3-J2 fibroblasts)
Details: 24 hour exposure at 400 μM, MTT
Description: Cultures were incubated with various concentrations of compounds dissolved in culture medium for 24 hours (acute toxicity) or extended time periods (chronic toxicity, 1-4 days). Cell viability was subsequently measured via the MTT (3-(4,5-dimethylthiazol-2-yl)-2,5-diphenyl tetrazolium bromide; Sigma) assay, which involves cleavage of the tetrazolium ring by mitochondrial dehydrogenase enzymes to form a purple precipitate. MTT was added to cells in DMEM without phenol red at a concentration of 0.5 mg/mL. After an incubation time of 1 hour, the purple precipitate was dissolved in a 1:1 solution of DMSO and Isopropanol. The absorbance of the solution was measured at 570 nm (SpectraMax spectrophotometer, Molecular Devices, Sunnyvale, Calif.).
Use of optimized micropatterned human co-cultures to evaluate metabolism and toxicity of xenobiotics. […] Acute toxicity tests involved incubating eight day old co-cultures for 24 hrs with various drugs, some with known clinical hepatotoxic potential. After the incubation time period, the cell culture medium was aspirated and a viability assay was conducted (MTT assay—commercially available). […]
To assess utility of the microscale human liver tissue for toxicity assays, the acute and chronic toxicity of model hepatotoxins were quantified. […]

SMILES: CN(CCOc1ccc(CC2SC(=O)NC2=O)cc1)c1ccccn1 (stereo not shown) [rosiglitazone]
- Relative toxicity of compounds in the same class (PPAR-gamma agonists): corresponded to clinical reports
